From US6844190B2, “St-B17 serotonin receptor” (The United States of America as represented by the …, priority 1992, dated 2005)

Protein sequences, listed by entry. Tags and fused reporters are not part of them. Chains listed by the source or under a name are the forms on record and can include a tag or linker.
UniProt P31388, with tags, fused parts or gaps L57V: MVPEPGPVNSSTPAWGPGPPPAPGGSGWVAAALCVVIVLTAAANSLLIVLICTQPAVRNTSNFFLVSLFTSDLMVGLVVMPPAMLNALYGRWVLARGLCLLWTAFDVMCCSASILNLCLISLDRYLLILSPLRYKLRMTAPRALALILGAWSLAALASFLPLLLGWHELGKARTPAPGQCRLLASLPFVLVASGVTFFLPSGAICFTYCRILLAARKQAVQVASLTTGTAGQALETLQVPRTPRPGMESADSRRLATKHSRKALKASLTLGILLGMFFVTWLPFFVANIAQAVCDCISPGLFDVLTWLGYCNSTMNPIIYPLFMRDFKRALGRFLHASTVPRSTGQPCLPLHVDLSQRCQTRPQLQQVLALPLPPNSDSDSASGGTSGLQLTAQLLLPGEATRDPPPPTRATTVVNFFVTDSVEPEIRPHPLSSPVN

Target: St-B17 serotonin receptor (Rattus norvegicus, UniProt P31388, L57V)
Assay: [125I]-LSD competition binding, Cos-7 cell membranes expressing St-B17
Design: expressed in transfected cells; host or cells: Cos-7 cells, transient transfection, crude membranes
Conditions: among endogenous biogenic amines

With `NCCc1c[nH]c2ccc(O)cc12` [5-HT, 5-hydroxytryptamine] the “displacement of [125I]-LSD binding (in words)” value was “completely displacing”.
